Experimental findings from publication PMC8000448, “Inhibitory Effects of Schisandra Lignans on Cytochrome P450s and Uridine 5′-Diphospho-Glucuronosyl Transferases in Human Liver Microsomes” (Pharmaceutics, 2021) are described below.

Sequences of proteins named here, by UniProt entry; tags and fusion partners are left off.
UniProt P33261, whole entry: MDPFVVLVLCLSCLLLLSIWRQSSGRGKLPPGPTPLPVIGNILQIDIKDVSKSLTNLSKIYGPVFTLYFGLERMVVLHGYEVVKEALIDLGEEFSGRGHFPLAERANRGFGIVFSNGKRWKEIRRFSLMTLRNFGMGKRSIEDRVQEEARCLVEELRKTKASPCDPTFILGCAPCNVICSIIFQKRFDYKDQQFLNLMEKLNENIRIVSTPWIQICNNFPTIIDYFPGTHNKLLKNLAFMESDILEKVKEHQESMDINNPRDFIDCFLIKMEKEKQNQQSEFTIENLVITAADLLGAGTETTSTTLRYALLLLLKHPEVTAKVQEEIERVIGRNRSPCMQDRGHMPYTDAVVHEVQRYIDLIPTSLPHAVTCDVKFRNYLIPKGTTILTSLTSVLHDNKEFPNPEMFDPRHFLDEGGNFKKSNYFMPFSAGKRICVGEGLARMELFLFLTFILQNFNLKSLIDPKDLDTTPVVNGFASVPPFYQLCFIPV
UniProt P10632, whole entry: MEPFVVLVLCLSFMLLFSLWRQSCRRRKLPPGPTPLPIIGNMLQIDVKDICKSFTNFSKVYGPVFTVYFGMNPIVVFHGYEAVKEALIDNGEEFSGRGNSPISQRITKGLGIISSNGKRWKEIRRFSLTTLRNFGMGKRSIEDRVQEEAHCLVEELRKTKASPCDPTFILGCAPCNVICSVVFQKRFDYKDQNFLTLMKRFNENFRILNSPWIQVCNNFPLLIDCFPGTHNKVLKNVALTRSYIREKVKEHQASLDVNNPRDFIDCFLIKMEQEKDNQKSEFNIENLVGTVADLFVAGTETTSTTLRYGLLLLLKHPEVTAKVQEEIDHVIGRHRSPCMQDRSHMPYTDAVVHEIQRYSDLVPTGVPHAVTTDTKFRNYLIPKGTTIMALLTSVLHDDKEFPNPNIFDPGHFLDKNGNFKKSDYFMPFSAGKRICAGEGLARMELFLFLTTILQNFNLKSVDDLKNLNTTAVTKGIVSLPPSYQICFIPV
UniProt P08684, whole entry: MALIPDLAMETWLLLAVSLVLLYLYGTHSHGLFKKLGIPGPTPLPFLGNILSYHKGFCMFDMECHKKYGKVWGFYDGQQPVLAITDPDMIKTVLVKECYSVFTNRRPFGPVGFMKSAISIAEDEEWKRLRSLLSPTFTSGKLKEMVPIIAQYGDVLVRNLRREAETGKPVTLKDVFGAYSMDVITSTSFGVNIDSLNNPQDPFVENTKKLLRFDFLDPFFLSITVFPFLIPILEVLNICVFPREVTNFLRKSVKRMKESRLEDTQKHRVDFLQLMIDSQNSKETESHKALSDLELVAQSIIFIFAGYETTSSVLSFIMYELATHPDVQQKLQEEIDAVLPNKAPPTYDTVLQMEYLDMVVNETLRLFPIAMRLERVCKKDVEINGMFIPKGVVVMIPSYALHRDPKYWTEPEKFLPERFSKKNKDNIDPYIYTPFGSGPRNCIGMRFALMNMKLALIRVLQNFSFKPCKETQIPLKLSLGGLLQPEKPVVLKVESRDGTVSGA

The target of series [1] is T1, rCYP2C19 (Homo sapiens, UniProt P33261).
T1 construct: purchased SPMED (Busan, Korea)
The series can be described thus: Inhibition of recombinant CYP2C19 (S-mephenytoin). In kind it is in vitro ADME. The protocol:
(§1) The incubation mixture consisted of 0.1 M potassium phosphate buffer (pH 7.4), 20 pmol/mL rCYP2C8, rCYP2C19, or rCYP3A4 enzyme, respective probe substrate and gomisin A (0~50 μM) in a final volume of 100 μL. After a 5 min pre-incubation period at 37 °C, reactions were initiated by the addition of an NADPH generating system, and further incubated for 10 min at 37 °C. […] Other conditions remained as described above.

The target of series [2] is T2, rP450s (Homo sapiens, UniProt P10632).
T2 construct: purchased SPMED (Busan, Korea)
The series can be described thus: Glutathione trapping of reactive metabolites in recombinant P450 isoforms. In kind it is in vitro ADME. The settings on record: 50 μM, 120 min, NADPH and GSH; UPLC-HRMS. The protocol: (§2) Gomisin A (50 μM) was incubated for 120 min at 37 °C with rP450s (20 pmol/mL) in 0.1 M phosphate buffer (pH 7.4) in the presence of 2 mM NADPH and 5 mM GSH. Control incubations in the absence of NADPH and GSH were conducted. Incubation samples were quenched with a half-fold volume of cold methanol. After centrifugation, supernatants were concentrated under vacuum and reconstituted with methanol (100 μL). Samples were analyzed by ultra-performance liquid chromatography-high resolution mass spectrometry (UPLC-HRMS).
(§3) To determine the GSH adducts produced by rP450s, a Vanquish UPLC system coupled with a QExactive Focus Orbitrap mass spectrometer (Thermo Fisher Scientific Inc., Waltham, MA, USA) was used. A Kinetex C18 column (100 × 2.1 mm, 2.6 μm) was used to separate the samples. The mobile phase was composed of water containing 0.1% formic acid (A) and acetonitrile containing 0.1% formic acid (B). The gradient elution was set as 10% B for 0–3 min, 10%→98% B for 3–10 min, 98%→10% B for 10–10.1 min, 10% B for 10.1–12 min. The flow rate was set to 0.2 mL/min. Data acquisition was carried out at m/z 100–800 with a resolution of 70,000 in the total ion scan mode, and MS/MS spectra were acquired at m/z 50–750 at a resolution of 17,500 in the daughter ion scan mode. […]

The test system of series [3] is rP450s. The series is described as above. In kind it is in vitro ADME, human. The following applies: rP450s, 50 μM, 2 mM NADPH, 5 mM glutathione; PRM method. The protocol:
as §2, §3

Series [4] concerns the target T3, rCYP3A4 (Homo sapiens, UniProt P08684).
T3 construct: purchased SPMED (Busan, Korea)
The series can be described thus: Inhibition of recombinant CYP3A4 (midazolam). In kind it is in vitro ADME. The protocol: as §1

The target of series [5] is T4, rCYP2C8 (Homo sapiens, UniProt P10632).
T4 construct: purchased SPMED (Busan, Korea)
The series can be described thus: Inhibition of recombinant CYP2C8 (amodiaquine). In kind it is in vitro ADME. The protocol:
as §1

[6] abbreviates: recombinant enzyme, RI/TDI fold shift.

Read-outs that look alike come from different tables or passages of the source. Some results are limits rather than exact numbers.

What is called IC50 is the concentration that gives 50% inhibition.

Consider gomisin A, for which the IC50 was 11.3 ± 3.3 µM in series [1] (recombinant enzyme 20 pmol/mL, average ± S.E. of triplicate, read-out: IC50 RI, rCYP2C19); under 5 µM in series [1] (recombinant enzyme, 30 min NADPH pre-incubation, average ± S.E., listed as gomisin A, read-out: IC50 TDI, rCYP2C19); 4.98 ± 0.49 µM in series [1] (recombinant enzyme, 30 min NADPH pre-incubation, average ± S.E., read-out: IC50 TDI, rCYP2C19); 1.51 ± 0.2 µM in series [4] (recombinant enzyme 20 pmol/mL, average ± S.E. of triplicate, read-out: IC50 RI, rCYP3A4); under 5 µM in series [4] (recombinant enzyme, 30 min NADPH pre-incubation, average ± S.E., listed as gomisin A, read-out: IC50 TDI, rCYP3A4); 0.51 ± 0.07 µM in series [4] (recombinant enzyme, 30 min NADPH pre-incubation, average ± S.E., read-out: IC50 TDI, rCYP3A4). Moreover, the half-maximal inhibitory concentration (IC50) in series [5] (recombinant enzyme 20 pmol/mL, average ± S.E. of triplicate, read-out: IC50 RI, rCYP2C8) was 30.4 ± 8.1 µM; in series [5] (recombinant enzyme, 30 min NADPH pre-incubation, average ± S.E., listed as gomisin A, read-out: IC50 TDI, rCYP2C8), under 5 µM; in series [5] (recombinant enzyme, 30 min NADPH pre-incubation, average ± S.E., read-out: IC50 TDI, rCYP2C8), 3.32 ± 1.05 µM. Further, in series [1] (setting [6]), the “IC50 shift, rCYP2C19” value was found to be 2.3. For the same substance, the “GSH conjugates formed in rCYP2C8” value in series [2] is listed as “only one GSH conjugate”. Besides, the “P450 isoforms involved in formation of carbene reactive metabolite (GSH adduct)” value in series [3] is “CYP2C8, CYP2C19, and CYP3A4”. The “IC50 shift, rCYP3A4” value in series [4] (setting [6]) was determined as 3.0. Further, the “IC50 shift, rCYP2C8” value in series [5] (setting [6]) is reported as 9.2.
